The values that follow are results of earlier work, collected in patent publication US7235367B2, “Method using crystal structure of estrogen receptor-β complex” (Genetics Institute, LLC., priority 2000, dated 2007).

Amino acid sequences for entries named in this document (tags omitted).
UniProt P03372, whole entry: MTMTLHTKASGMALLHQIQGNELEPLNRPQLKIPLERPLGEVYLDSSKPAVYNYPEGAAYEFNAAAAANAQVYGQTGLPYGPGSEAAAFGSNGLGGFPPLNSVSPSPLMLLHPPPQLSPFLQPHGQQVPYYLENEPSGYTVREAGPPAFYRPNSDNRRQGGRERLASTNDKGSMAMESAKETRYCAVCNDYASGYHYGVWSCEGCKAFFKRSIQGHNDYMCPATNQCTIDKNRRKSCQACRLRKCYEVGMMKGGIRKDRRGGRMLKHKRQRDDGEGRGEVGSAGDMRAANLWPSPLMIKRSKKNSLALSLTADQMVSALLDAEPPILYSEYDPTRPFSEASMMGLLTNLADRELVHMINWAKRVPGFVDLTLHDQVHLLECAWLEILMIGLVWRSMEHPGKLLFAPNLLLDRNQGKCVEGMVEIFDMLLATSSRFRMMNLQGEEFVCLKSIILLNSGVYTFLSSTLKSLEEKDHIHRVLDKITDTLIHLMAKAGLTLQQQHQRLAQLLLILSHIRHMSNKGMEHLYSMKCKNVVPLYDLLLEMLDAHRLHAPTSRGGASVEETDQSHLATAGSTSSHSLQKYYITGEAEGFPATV

In the data set the target is ER-α (Homo sapiens, UniProt P03372). The settings on record: co-activator binding, ER-α relative to ER-β.

As for “SRC-3: Steroid receptor coactivator-3, co-activator protein of estrogen receptors”, the “fold tighter binding to ER-α than to ER-β” value is “approximately 700 fold”.
